Consider one compound from patent publication US20060242739A1, “Plant nucleotide-sugar pyrophosphatase/phosphodiesterase (nppase), method of obtaining same and use of same in the production of assay devices and in the production of transgenic plants” (Universidad Publica De Navarra, priority 2002, published 2006).

This test concerns the target T1, NPPase from barley leaves (Hordeum vulgare, UniProt Q687E1).
T1 sequence (Q687E1 19-368): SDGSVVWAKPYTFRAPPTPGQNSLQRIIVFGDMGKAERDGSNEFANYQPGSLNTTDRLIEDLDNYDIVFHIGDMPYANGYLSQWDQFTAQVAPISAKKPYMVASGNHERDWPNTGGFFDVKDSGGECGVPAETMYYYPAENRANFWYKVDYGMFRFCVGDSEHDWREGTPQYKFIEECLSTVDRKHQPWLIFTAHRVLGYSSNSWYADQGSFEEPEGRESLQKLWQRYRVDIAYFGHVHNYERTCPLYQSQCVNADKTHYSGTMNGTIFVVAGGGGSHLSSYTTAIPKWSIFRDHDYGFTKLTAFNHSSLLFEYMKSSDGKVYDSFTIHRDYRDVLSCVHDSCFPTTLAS
The test is described as follows: Enzymatic test of soluble NPPase from barley leaves: kinetic parameters, substrate specificity, effectors.

Regarding `Nc1ncnc2c1ncn2[C@@H]1O[C@H](COP(=O)(O)OP(=O)(O)OP(=O)(O)O)[C@@H](O)[C@H]1O` [ATP], under “Vmax in % in relation to ADPG, NPPase from barley leaves”, the Vmax was determined as 40%. For the same compound, the “effect on NPPase activity (inhibition)” value (qualitative) is recorded as “inhibited”.
